This note sets out measurements from PubChem BioAssay AID624464 (National Center for Advancing Translational Sciences (NCATS), 2012).

Protein sequences, listed by entry. Tags and fused reporters are not part of them.
UniProt P14416, whole entry: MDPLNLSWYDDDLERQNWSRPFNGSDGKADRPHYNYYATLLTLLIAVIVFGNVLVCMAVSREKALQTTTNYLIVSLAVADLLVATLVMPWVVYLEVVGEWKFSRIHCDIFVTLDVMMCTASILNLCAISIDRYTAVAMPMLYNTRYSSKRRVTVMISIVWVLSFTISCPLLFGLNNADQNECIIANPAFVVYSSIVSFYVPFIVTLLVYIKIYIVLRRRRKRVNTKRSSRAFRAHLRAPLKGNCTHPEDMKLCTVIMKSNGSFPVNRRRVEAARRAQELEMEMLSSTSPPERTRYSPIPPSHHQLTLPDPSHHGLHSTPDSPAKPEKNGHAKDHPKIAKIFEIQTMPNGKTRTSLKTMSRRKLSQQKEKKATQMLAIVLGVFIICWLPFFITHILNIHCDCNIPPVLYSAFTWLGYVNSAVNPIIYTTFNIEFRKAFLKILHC

Structures are written as SMILES. Only a part is listed here, and it is no random draw. The source made the active and inactive calls. Cut-off read from the data, not from the text of the source: active = potentiation above about 50%; inconclusive = mostly about 30% to 49%; inactive = weaker than that.

For this assay, the target named is D(2) dopamine receptor (Homo sapiens) (UniProt P14416). As to the kind of experiment: Beta-Arrestin HTS for Positive Allosteric Modulators of the Human D2 Dopamine Receptor: Potentiators. The conditions noted are these: DiscoveRx D2 beta-arrestin cells, luminescence, 90 min; hits give high values; 100% = 57 uM dopamine signal. An excerpt:
There is great interest in identifying small molecule ligands for G-protein coupled receptors (GPCRs) as nearly 50% of all FDA-approved drugs target these important receptor proteins. […] Amongst the dopamine receptors (DARs), the D2 is arguably one of the most validated drug targets in neurology and psychiatry. For instance, all receptor-based antiparkinsonian drugs primarily work via stimulating the D2 DAR, whereas all FDA-approved antipsychotic agents are antagonists of this receptor. The D2 DAR is also therapeutically targeted in other disorders such as restless legs syndrome, tardive dyskinesia, Tourette's syndrome, and hyperprolactinemia.
To this end, a miniaturized qHTS screen was developed to be screened against the Molecular Libraries Small Molecule Repository (MLSMR). This assay seeks to identify potentiators against the D2 DAR.
NIH Molecular Libraries Probe Production Network [MLPCN] […]
DiscoveRx D2 cells were thawed from frozen stock and seeded at 2,100 cells/ 3 uL/well media (DiscoveRx Plating Reagent 2) with MultiDrop Combi dispenser (Thermo Scientific, Logan, UT) onto white tissue culture treated 1536-well Aurora plates (Brooks Automation, Chelmsford, MA) and allowed to attach overnight at 37 deg C, 5% CO2. […] The plates were incubated at ambient temperature for 1 hour and then the luminescent signal was read on ViewLux plate reader (PerkinElmer, Waltham, MA).
For `CCC(=O)N(c1ccccc1)C1(COC)CCN(CCc2cccs2)CC1`, the potentiation is inactive: -29.3%.
For `CCC(=O)N(c1ccccc1)C1(COC)CCN(CCn2nnn(CC)c2=O)CC1`, the potentiation was inactive: -7.25%.
